This is an account of results in PMC4538835 (Nucleic Acids Research, 2015).

This assay addresses T1, MED25 ACID/PTOV domain (Homo sapiens, UniProt Q71SY5).
T1 sequence (Q71SY5 391-548): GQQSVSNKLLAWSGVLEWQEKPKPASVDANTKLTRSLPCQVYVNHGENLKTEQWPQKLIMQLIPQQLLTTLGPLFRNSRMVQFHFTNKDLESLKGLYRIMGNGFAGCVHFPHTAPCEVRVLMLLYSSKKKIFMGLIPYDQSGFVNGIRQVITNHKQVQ
Nature of the assay: Fluorescence polarization. Type of assay: binding. To be noted: FP Kd ratio, mutant vs wild-type ERM38–68.

In the case of `CC[C@H](C)[C@H](NC(=O)[C@H](C)NC(=O)[C@H](CC(N)=O)NC(=O)c1ccc(C(=O)[O-])c(-c2c3ccc(=[N+](C)C)cc-3oc3cc(N(C)C)ccc23)c1)C(=O)NCC(=O)N[C@@H](CO)C(=O)N[C@@H](CCSC)C(=O)N[C@@H](CC(=O)O)C(=O)N[C@@H](CC(C)C)C(=O)N[C@@H](C)C(=O)N[C@@H](Cc1c[nH]cn1)C(=O)N[C@@H](CC(=O)O)C(=O)N[C@@H](CO)C(=O)N[C@@H](CCC(=O)O)C(=O)N[C@@H](CCC(=O)O)C(=O)N[C@@H](CC(C)C)C(=O)N[C@@H](C)C(=O)N[C@@H](CCC(N)=O)C(=O)N[C@@H](CC(=O)O)C(=O)N[C@@H](CC(C)C)C(=O)N[C@@H](CO)C(=O)N[C@@H](CCC(N)=O)C(=O)N[C@@H](CC(C)C)C(=O)N[C@@H](CCC(N)=O)C(=O)N[C@@H](CCC(=O)O)C(=O)N[C@@H](C)C(=O)N[C@@H](C)C(=O)N[C@@H](CC(C)C)C(=O)N[C@@H](C)C(=O)N[C@@H](CCC(=O)O)C(=O)N[C@@H](C)C(=O)N[C@@H](CCC(N)=O)C(=O)N[C@H](C(=O)N1CCC[C@H]1C(=O)N[C@@H](CC(=O)O)C(=O)N[C@@H](CC(=O)O)C(=O)N[C@@H](CCC(=O)O)C(=O)N[C@@H](CCC(N)=O)C(=O)O)C(C)C` [ERM38–68 F47A/W57A], the “fold drop in affinity relative to wild-type ERM38–68” value is 75 fold.
